Experimental data taken from PubChem BioAssay (EPA / NIEHS).
Values joined by “and” are separate entries in the source; they are usually repeats but may differ in a detail not shown here. Equal values may be shown once. The list shows a part of the results, in another mix than the full data. Results filed as inconclusive are left out. Where a structure was tested more than once in an assay, its records may differ in their call. Active and inactive are the calls of the source. How the source made its calls, unless noted: active means hit-call score of the fitted dose curve at least 0.9, where 1 is the maximum; inactive means score below 0.9.

Sequences of proteins named here, by UniProt entry; tags and fusion partners are left off.
UniProt P01375, whole entry, looked up: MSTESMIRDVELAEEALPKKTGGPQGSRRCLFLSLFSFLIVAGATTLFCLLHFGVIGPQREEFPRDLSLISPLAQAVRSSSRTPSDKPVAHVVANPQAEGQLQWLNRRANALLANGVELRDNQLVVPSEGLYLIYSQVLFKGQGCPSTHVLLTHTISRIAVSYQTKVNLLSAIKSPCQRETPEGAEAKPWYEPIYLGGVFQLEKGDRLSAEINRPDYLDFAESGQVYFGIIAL

Assays:
[1] = BSK_BT_PBMCCytotoxicity: PBMC Cytotoxicity Assessment in the BioMAP Diversity Plus: BT Assay (AID 2284225); details: primary human B cells with PBMC;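 further: PBMC viability measured by Alamar Blue dye reduction fluorescence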
In short: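 Viability by Alamar Blue reduction (6 h, ex/em 546/580 nm) after 90 h culture of SEB/TSST-1-activated PBMC (20 ng/mL each) given compound 1 h before activation. DMSO served as baseline for curve fitting.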

[2] = read-out: Secreted IgG (sIgG), gene 3500; experiment: BSK_BT_sIgG: BioMAP Diversity Plus: BT Assay for Secreted IgG (sIgG) Biomarker Activity (AID 2284226); details: primary human B cells with PBMC
In short: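 Cells (B cells with peripheral blood mononuclear cells) are dosed, cultured 24 h, then supernatant IgG is measured by ELISA. DMSO serves as negative control; curves are fitted for signal increase.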

[3] = BSK_BT_Bcell_Proliferation: Viability Assessment in the BioMAP Diversity Plus: BT Assay for B cell Proliferation (AID 2284227); details: primary human B cells with PBMC
In short: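 SRB-based protein staining (0.1% SRB after 10% TCA fixation, 560 nm) quantifies proliferation in human B cells co-cultured with PBMC, 72 h post-dosing, with signal gain scored relative to DMSO negative control.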

[4] = read-out: Interleukin 6 (IL6), IL6 (gene 3569); experiment: BSK_BT_xIL6: BioMAP Diversity Plus: BT Assay for Interleukin 6 (IL6) Biomarker Activity (AID 2284228); details: primary human B cells with PBMC
In short: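 B cells and peripheral blood mononuclear cells (human primary co-culture) were dosed with chemical, and after 24 h IL-6 released into the medium was measured by Luminex xMAP. Responses were analysed as gain of signal over DMSO control.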

[5] = read-out: Tumor necrosis factor (Homo sapiens) (UniProt P01375); experiment: BSK_BT_xTNFa: BioMAP Diversity Plus: BT Assay for Tumor necrosis factor alpha (TNF-alpha) Biomarker Activity (AID 2284230); details: primary human B cells with PBMC
In short: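 Compounds were added to a B cell plus PBMC co-culture, and after 24 h secreted TNF-alpha was quantified with Luminex xMAP technology, with responses fitted upward from the DMSO control.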

[6] = read-out: Vascular cell adhesion molecule 1 (VCAM1), VCAM1 (gene 7412); experiment: BSK_MyoF_VCAM1: BioMAP Diversity Plus: MyoF Assay for Vascular cell adhesion molecule 1 (VCAM1) Biomarker Activity (AID 2284231); details: primary human lung fibroblasts
In short: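 ELISA read-out of VCAM-1 on human lung fibroblasts 24 h after chemical treatment, with positive-direction curve fitting relative to DMSO controls. Parallel cultures were stained with sulforhodamine B for total protein to flag overt cytotoxicity.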

[7] = read-out: Interleukin 17A (IL17A), IL17A (gene 3605); experiment: BSK_BT_xIL17A: BioMAP Diversity Plus: BT Assay for Interleukin 17A (IL17A) Biomarker Activity (AID 2284229); details: primary human B cells with PBMC
In short: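 Secreted IL-17A was the measured endpoint, read by Luminex xMAP multiplex in supernatants of a human B cell/PBMC co-culture harvested 24 h after chemical dosing. Signal increase relative to DMSO defined activity.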

[8] = CCTE_Mundy_HCI_Cortical_NOG_NeuriteLength: CCTE's Neurite Outgrowth Assay in rat cortical cells for Neurite Length, Mundy Lab (AID 2284213);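 on AC50: neurites imaged about 48 to 50 h after chemical exposure began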
In short: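 First, rat primary cortical cells were plated and, 2 h later, given test chemical as a 1/10 dilution. Finally, βIII-tubulin immunostaining enabled automated imaging of neurite length.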

[9] = CCTE_Mundy_HCI_Cortical_Synap_Neur_Matur_NeuriteLength: CCTE's Synaptogenesis and Neurite Maturation Assay in rat cortical cells for Neurite Length, Mundy Lab (AID 2284214)
In short: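 Cultures of rat primary cortical cells received chemical at DIV 7 and were fixed at DIV 12, after glial arrest with AraC at DIV 5. Neurite length was measured by automated imaging of MAP2 immunofluorescence.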

[10] = CCTE_Mundy_HCI_Cortical_Synap_Neur_Matur_NeuriteSpotCountPerNeuron: CCTE's Synaptogenesis and Neurite Maturation Assay in rat cortical cells for Neurite Spot Count per Neuron Count, Mundy Lab (AID 2284215)
In short: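 Rat cortical primary cultures; AraC DIV 5 to arrest glia; dosing + media change DIV 7; fixed DIV 12. Anti-MAP2/anti-synaptophysin, Hoechst nuclei; HCI puncta count per neuron, positive fitting direction vs DMSO.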

[11] = CCTE_Mundy_HCI_Cortical_Synap_Neur_Matur_SynapseCount: CCTE's Synaptogenesis and Neurite Maturation Assay in rat cortical cells for Synapse Count, Mundy Lab (AID 2284218)
In short: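 Cells were plated, allowed 2 hr to attach, treated with AraC at DIV 5, then exposed to chemicals from DIV 7 until DIV 12. After fixation and MAP2/synaptophysin immunolabelling, synapses per neuron were quantified by automated imaging against DMSO.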

[12] = CCTE_Mundy_HCI_hN2_NOG_NeuriteCount: CCTE's Neurite Outgrowth Assay in human hN2 cells for Neurite Count, Mundy Lab (AID 2284219; active means hit-call score of the fitted dose curve at least 0.9, where 1 is the maximum)
In short: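 In this morphology assay, hNP1-derived neurons received test chemical 2 h post-plating and were fixed two days later in warm paraformaldehyde/sucrose containing Hoechst 33342. Neurites, labelled by rabbit anti-βIII-tubulin (1:800) and Alexa Fluor-488 (1:500), were counted automatically.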

[13] = CCTE_Mundy_HCI_hN2_NOG_NeuriteLength: CCTE's Neurite Outgrowth Assay in human hN2 cells for Neurite Length, Mundy Lab (AID 2284220; active means hit-call score of the fitted dose curve at least 0.9, where 1 is the maximum)
In short: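 Using βIII-tubulin immunofluorescence and Hoechst nuclear counterstain, this component quantifies neurite length in hNP1-derived neurons.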

[14] = CCTE_Mundy_HCI_hN2_NOG_NeuronCount: CCTE's Neurite Outgrowth Assay in human hN2 cells for Neuron Count, Mundy Lab (AID 2284221; active means hit-call score of the fitted dose curve at least 0.9, where 1 is the maximum)
In short: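 Read-out is the number of betaIII-tubulin-positive neurons imaged by automated high-content analysis, with DMSO as negative control.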

[15] = CCTE_Mundy_HCI_Cortical_Synap_Neur_Matur_CellBodySpotCount: CCTE's Synaptogenesis and Neurite Maturation Assay in rat cortical cells for Cell Body Spot Count, Mundy Lab (AID 2284223)
In short: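 Rat cortical neurons; AraC @ DIV 5; dose + media change DIV 7; fix DIV 12; anti-MAP2/anti-synaptophysin IF, Hoechst; HCI count of soma synaptophysin puncta/neuron; DMSO = negative control.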

[16] = UKN2_HCS_IMR90_cell_viability: Viability Assessment in the University of Konstanz (UKN) Leist Lab Neural Crest Cell Migration Assay in human induced IMR90 Pluripotent Stem Cells (UKN2) (AID 2284233);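 further: viability of neural crest cells differentiated from IMR90 iPSC measured by calcein-AM fluorescence imaging; cells exposed to compound for 24 h after a 24 h migration phase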
In short: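 cMINC format, iPSC-derived neural crest (IMR90); 24 h migration (EGF/FGF, N2-S), then 24 h toxicant. Calcein-AM/H-33342 stain 30 min; fluorescence intensity by HCS; DMSO-normalised, bidirectional fitting.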

[17] = CCTE_Mundy_HCI_Cortical_NOG_NeuronCount: CCTE's Neurite Outgrowth Assay in rat cortical cells for Neuron Count, Mundy Lab (AID 2284236; active means hit-call score of the fitted dose curve at least 0.9, where 1 is the maximum;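 further: neurons counted by imaging betaIII-tubulin and Hoechst stained cortical cells; cells exposed to compound for about 48 hours before fixation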)
In short: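 Read-out: neuron number by high-content imaging of betaIII-tubulin (Alexa Fluor-488) and Hoechst-labelled rat primary cortical cells.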

[18] = CCTE_Mundy_HCI_Cortical_NOG_BPCount: CCTE's Neurite Outgrowth Assay in rat cortical cells for Branch Point Count, Mundy Lab (AID 2284237);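 on AC50: branch points counted about two days after chemical exposure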
In short: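 Measured 50.33 h after dosing, this morphology endpoint uses rat primary cortical cultures labelled for betaIII-tubulin. Branch points are quantified by high-content imaging, with DMSO as negative control and baseline.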

[19] = CCTE_Mundy_HCI_Cortical_Synap_Neur_Matur_NeuriteCount: CCTE's Synaptogenesis and Neurite Maturation Assay in rat cortical cells for Neurite Count, Mundy Lab (AID 2284222);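 further: exposure from day 7 to day 12 in vitro with readout at day 12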
In short: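 Chemical exposure runs DIV 7–12 in rat cortical cultures, glia suppressed by AraC at DIV 5; measurement is at DIV 12. Imaging-derived neurite counts are fitted against DMSO baseline.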

[20] = CCTE_Mundy_HCI_hNP1_Pro_ResponderAvgInten: CCTE's Proliferation Assay in human neuroprogenitor cells, Mundy Lab (AID 2284224; active means hit-call score of the fitted dose curve at least 0.9, where 1 is the maximum;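 further: human neural progenitor cells hNP1 derived from WA09 embryonic stem cells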)
In short: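 Human neuroprogenitors (hNP1, WA09 lineage) receive test chemical after 40 to 44 hours of attachment. A four-hour BrdU pulse begins twenty hours later, followed by fixation and high content imaging; signal is referenced to DMSO controls.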

Measured: AC50

O=[N+]([O-])c1ccc([N+](=O)[O-])cc1
inactive: [6]
active: [1] 20.2 µM | [2] 8.39 µM | [3] 20 µM | [4] 11.8 µM | [5] 26.3 µM

O=C(Cl)Oc1ccccc1
inactive: [1] | [2] | [3] | [4] | [7] | [5] | [6]

CC(C)OP(=S)(OC(C)C)SCCNS(=O)(=O)c1ccccc1
active: [8] 86.6 µM and 82.2 µM | [9] 50 µM and 29.9 µM | [10] 17.5 µM | [11] 25.1 µM | [12] 20.9 µM | [13] 17 µM | [14] 26.5 µM | [15] 52 µM | [16] 130 µM | [17] 71.1 µM | [18] 87.1 µM and 69.7 µM
inactive: [10] | [11] | [15] | [17]

CC(C)OP(=O)(OC(C)C)SCCNS(=O)(=O)c1ccccc1
inactive: [8] | [9] | [10] | [11] | [19] | [15] | [20] | [16] | [17] | [18]
